Results as given in US9018160B2, “Peptide tyrosine tyrosine analogues” (Imperial Innovations Limited, priority 2010, dated 2015).

Tests used:
Type in all cases: in vivo
[1] = Rat pharmacokinetics, comparison with and without Zn2+ (Example 12); settings: rats, subcutaneous 1 mg/ml, zinc-free composition, FIG. 27
[2] = Feeding study in diet induced obese mice (Example 9); settings: DIO mice, 300 nmol/kg subcutaneous once daily, 51 days, 1 zinc ion per peptide molecule
Protocol: 13 weeks prior to the start of the study, diet induced obese (DIO) mice were obtained by feeding C57BL/6 mice a high fat diet (60 kcal % fat). This diet was used throughout the study. […] Animals were randomized into treatment groups (n=7-8), with stratification by body weight.
at 300 nmol/kg, and with 1 zinc ion (as ZnCl2) per peptide molecule. Injection volume was […] for all treatment groups and mice were dosed for 51 days, at 16:00 hrs. Mice were fed 60 minutes after injection and had access to food until 07:30 hrs the following day when food was weighed and removed. Results

[3] = Acute feeding studies in mice; settings: 50 nmol/kg subcutaneous
Protocol: Male C57BL/6 mice (Harlan) were used for all mouse experiments. Male Wistar rats (Charles River) were used for all rat experiments.
Mice were individually housed in IVC cages. Animals were randomised into treatment groups, with stratification by body weight. Mice were fasted overnight (16 hrs) prior to peptide or vehicle administration. All peptide solutions were prepared freshly, immediately prior to administration. The vehicle used for all studies was 5% v/v water and 95% v/v sodium chloride (0.9% w/v). Peptide and vehicle were administered by subcutaneous injection, with dosage corrected for bodyweight. The maximal injection volume was 100 μl. Vehicle or peptide was administered at 09:00 and animals were returned to their home cage with a known amount of food. Food intake was measured at 1, 2, 4, 8 and 24 hours post injection. All statistics are calculated using a one-way ANOVA with Dunnett's post-test or one-way ANOVA with Bonferroni post-test.
Mice were injected with the Analogue No. 15 (1000 nmol/kg) having the sequence
Mice were injected with Analogue No. 15 (5000 nmol/kg) having the sequence

With `CC[C@H](C)[C@H](N)C(=O)N[C@@H](CCCCN)C(=O)N1CCC[C@H]1C(=O)N[C@@H](CCC(=O)O)C(=O)N[C@@H](C)C(=O)N1CCC[C@H]1C(=O)NCC(=O)N[C@@H](CCC(=O)O)C(=O)N[C@@H](CC(=O)O)C(=O)N[C@@H](C)C(=O)N[C@@H](CO)C(=O)N1CCC[C@H]1C(=O)N[C@@H](CCC(=O)O)C(=O)N[C@@H](CCC(=O)O)C(=O)N[C@@H](CC(C)C)C(=O)N[C@@H](CC(N)=O)C(=O)N[C@@H](CCCNC(=N)N)C(=O)N[C@@H](Cc1ccc(O)cc1)C(=O)N[C@@H](Cc1ccc(O)cc1)C(=O)N[C@@H](C)C(=O)N[C@@H](CO)C(=O)N[C@@H](CC(C)C)C(=O)N[C@@H](CCCNC(=N)N)C(=O)N[C@@H](Cc1c[nH]cn1)C(=O)N[C@@H](Cc1ccc(O)cc1)C(=O)N[C@@H](CC(C)C)C(=O)N[C@@H](CC(N)=O)C(=O)N[C@@H](CC(C)C)C(=O)N[C@H](C(=O)N[C@H](C(=O)N[C@@H](CCCNC(=N)N)C(=O)N[C@@H](CCC(N)=O)C(=O)N[C@@H](CCCNC(=N)N)C(=O)N[C@@H](Cc1ccc(O)cc1)C(N)=O)[C@@H](C)O)C(C)C` [PYY 3-36 NH2, reference compound] the “time of peak of plasma PYY 3-36 NH2” value [1] was 10 to 15 min, the “effect on mean body weight compared to saline” value ([2]; FIGS. 10 and 11) was “no sustained effect” and the “cumulative food intake compared to saline” value ([2]; FIGS. 12 and 13) was “no sustained effect”. For the same compound, the “food intake compared with saline” value ([3]; over 24 hours, FIG. 2) was “reduce food intake compared with saline” and the “time until which food intake is significantly reduced” value ([3]; relative to saline, FIGS. 5 and 6) was “approximately 4 hours”.
